Experimental findings from ChEMBL document CHEMBL2407029, “Sandmeyer reaction repurposed for the site-selective, non-oxidizing radioiodination of fully-deprotected peptides: studies on the endogenous opioid peptide α-neoendorphin” (Bioorg Med Chem Lett, 2013) are described below.

Amino acid sequences for entries named in this document (tags omitted).
UniProt P35372, whole entry: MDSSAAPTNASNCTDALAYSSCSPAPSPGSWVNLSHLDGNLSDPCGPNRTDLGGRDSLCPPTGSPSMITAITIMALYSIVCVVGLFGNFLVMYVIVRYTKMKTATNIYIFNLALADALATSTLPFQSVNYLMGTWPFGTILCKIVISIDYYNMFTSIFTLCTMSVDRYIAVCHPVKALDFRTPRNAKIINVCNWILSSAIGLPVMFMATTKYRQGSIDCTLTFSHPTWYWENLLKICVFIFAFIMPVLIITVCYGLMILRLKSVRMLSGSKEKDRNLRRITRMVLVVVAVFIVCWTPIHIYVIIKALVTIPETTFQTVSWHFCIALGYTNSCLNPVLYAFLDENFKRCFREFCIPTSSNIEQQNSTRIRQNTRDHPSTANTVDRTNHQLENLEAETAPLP

In one assay the target is Mu-type opioid receptor (Homo sapiens, UniProt P35372). Description: Displacement of [125]IBNtxA from MOR-1 (unknown origin) transfected in CHO cells after 90 mins by competitive binding assay. In kind it is cell-based.
Assay [1] can be described thus: Displacement of [131I]-[D-Ala2,4'-I-Phe8]alpha-Neoendorphin from opioid receptor in CD-1 mouse brain after 90 mins by competitive binding assay. In kind it is tissue-based. (In a radioligand displacement assay an active substance lowers the binding of a labelled ligand.)

By Ki is commonly meant the equilibrium dissociation constant of an inhibitor or competing ligand from its target. Read a low Ki as a stronger hold on the target. At Mu-type opioid receptor, `CC(C)C[C@H](NC(=O)[C@H](Cc1ccccc1)NC(=O)CNC(=O)CNC(=O)[C@@H](N)Cc1ccc(O)cc1)C(=O)N[C@@H](CCCNC(=N)N)C(=O)N[C@@H](CCCCN)C(=O)N[C@@H](Cc1ccc(O)cc1)C(=O)N1CCC[C@H]1C(=O)N[C@@H](CCCCN)C(=O)O` had a Ki of 7.3 nM.

As for `CC1(C)SSC(C)(C)C(NC(=O)[C@@H](N)Cc2ccc(O)cc2)C(=O)NCC(=O)N[C@H](Cc2ccccc2)C(=O)NC1C(=O)O` (stereo in doubt), the Ki in assay [1] worked out at 3.8 nM.
